From patent US20150258192A1, “COMPOSITIONS AND METHODS FOR PREVENTING OR TREATING CHRONIC LUNG ALLOGRAFT DYSFUNCTION (CLAD) AND IDIOPATHIC PULMONARY FIBROSIS (IPF)” (priority 2014, published 2015)

The chains behind the UniProt entries cited, without tags or fusion partners. Where a name states a change or a piece, a line headed by the entry shows the natural chain unless it says otherwise. Residues count along the entry.
UniProt P48730: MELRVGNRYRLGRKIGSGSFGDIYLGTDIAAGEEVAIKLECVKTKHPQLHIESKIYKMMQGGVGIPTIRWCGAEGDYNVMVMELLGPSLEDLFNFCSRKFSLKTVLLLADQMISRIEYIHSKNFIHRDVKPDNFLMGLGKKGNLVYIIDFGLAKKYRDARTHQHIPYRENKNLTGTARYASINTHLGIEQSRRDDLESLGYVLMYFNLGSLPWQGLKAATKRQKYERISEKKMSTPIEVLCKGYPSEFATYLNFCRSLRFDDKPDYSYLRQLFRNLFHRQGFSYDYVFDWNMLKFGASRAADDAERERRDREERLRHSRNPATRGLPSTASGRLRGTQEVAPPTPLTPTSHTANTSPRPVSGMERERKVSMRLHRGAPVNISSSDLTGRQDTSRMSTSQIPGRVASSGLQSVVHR
UniProt Q13555: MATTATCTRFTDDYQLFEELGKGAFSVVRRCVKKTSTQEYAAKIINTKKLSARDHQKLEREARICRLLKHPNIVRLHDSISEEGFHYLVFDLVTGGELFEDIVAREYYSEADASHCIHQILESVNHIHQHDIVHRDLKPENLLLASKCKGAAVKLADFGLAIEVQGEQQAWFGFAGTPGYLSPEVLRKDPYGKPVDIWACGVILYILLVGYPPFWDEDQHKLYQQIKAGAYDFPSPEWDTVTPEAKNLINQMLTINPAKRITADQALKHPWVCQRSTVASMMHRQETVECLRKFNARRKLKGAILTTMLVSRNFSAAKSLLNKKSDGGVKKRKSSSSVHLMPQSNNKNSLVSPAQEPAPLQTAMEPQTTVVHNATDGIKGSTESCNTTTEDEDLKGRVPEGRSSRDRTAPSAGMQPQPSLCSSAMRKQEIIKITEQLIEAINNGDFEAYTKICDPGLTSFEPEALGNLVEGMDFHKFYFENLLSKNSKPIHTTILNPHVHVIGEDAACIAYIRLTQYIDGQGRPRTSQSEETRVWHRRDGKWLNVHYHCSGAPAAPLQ
UniProt Q92630: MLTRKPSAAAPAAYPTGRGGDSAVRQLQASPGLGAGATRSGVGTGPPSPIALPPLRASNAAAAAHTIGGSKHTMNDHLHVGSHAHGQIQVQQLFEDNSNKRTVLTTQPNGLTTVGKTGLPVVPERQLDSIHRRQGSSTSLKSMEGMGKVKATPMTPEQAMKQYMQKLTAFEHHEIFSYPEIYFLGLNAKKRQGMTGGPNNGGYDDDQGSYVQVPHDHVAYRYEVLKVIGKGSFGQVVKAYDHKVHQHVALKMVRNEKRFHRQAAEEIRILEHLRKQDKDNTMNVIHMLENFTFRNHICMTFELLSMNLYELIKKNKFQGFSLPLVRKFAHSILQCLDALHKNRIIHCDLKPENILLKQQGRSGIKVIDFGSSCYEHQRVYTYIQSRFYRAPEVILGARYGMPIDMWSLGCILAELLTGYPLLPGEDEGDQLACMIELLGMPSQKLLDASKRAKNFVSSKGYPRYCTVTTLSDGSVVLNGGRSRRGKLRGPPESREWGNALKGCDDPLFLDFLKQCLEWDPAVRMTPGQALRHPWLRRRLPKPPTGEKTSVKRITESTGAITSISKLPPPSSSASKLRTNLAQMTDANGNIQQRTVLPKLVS
UniProt P53779: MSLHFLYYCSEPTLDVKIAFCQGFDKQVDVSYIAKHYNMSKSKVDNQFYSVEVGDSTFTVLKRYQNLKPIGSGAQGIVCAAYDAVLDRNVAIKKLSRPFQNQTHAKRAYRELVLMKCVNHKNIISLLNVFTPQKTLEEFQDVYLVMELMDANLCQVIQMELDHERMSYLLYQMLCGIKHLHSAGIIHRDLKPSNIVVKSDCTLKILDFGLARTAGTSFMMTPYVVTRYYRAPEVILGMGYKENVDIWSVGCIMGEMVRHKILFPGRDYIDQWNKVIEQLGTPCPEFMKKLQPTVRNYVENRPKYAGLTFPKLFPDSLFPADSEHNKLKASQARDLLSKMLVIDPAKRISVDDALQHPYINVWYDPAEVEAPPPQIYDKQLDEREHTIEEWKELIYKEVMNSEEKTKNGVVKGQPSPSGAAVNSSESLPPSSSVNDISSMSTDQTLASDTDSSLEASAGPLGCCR
UniProt Q13043: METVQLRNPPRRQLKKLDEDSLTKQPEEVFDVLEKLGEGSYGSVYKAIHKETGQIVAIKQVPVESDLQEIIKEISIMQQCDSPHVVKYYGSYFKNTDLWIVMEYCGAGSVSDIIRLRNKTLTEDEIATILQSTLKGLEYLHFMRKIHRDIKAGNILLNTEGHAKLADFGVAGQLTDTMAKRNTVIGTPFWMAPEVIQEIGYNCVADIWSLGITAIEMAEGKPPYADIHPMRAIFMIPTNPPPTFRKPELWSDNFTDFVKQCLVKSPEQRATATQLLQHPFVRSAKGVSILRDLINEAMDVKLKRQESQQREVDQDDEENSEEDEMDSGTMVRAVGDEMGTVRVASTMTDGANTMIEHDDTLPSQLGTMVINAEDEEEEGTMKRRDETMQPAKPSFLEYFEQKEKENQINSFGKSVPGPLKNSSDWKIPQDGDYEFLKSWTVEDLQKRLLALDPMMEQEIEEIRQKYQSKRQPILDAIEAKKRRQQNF
UniProt Q8TDX7: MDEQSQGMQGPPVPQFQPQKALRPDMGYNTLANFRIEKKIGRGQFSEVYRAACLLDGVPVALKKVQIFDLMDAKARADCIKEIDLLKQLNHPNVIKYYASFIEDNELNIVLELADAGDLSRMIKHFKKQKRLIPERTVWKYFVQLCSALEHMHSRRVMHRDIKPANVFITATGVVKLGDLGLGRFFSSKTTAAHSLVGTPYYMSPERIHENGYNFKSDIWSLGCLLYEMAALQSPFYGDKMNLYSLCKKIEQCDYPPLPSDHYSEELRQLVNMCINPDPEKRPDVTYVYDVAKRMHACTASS
UniProt P31749: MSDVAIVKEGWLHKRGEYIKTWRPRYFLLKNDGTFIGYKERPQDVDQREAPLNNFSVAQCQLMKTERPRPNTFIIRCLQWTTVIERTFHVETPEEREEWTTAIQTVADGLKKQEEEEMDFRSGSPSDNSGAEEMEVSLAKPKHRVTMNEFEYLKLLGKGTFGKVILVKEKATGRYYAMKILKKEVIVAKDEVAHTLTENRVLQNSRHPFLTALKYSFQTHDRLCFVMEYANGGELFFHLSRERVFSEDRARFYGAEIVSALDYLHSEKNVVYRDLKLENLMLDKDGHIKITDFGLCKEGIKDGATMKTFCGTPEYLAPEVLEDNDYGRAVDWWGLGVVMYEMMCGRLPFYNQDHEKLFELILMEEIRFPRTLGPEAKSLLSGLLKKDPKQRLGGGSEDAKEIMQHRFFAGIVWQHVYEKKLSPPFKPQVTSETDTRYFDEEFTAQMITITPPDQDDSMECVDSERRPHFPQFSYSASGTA
UniProt Q04759: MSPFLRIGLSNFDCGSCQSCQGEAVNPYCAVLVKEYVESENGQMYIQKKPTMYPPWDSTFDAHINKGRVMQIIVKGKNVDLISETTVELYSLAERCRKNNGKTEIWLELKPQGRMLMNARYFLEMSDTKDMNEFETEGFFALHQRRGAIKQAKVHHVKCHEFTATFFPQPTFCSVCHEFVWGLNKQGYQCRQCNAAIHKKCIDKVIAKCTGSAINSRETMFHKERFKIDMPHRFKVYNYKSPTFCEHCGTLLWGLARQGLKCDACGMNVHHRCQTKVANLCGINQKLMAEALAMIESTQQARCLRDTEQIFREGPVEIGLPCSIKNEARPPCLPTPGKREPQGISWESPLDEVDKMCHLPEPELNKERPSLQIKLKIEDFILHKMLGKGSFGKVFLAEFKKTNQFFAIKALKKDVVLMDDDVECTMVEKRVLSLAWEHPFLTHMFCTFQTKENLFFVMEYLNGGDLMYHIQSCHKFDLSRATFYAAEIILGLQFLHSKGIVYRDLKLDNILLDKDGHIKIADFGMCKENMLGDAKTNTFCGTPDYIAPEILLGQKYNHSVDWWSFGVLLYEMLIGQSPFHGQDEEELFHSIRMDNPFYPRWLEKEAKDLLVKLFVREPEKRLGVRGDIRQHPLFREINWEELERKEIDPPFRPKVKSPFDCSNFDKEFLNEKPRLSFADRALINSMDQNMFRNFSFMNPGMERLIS
UniProt O15264: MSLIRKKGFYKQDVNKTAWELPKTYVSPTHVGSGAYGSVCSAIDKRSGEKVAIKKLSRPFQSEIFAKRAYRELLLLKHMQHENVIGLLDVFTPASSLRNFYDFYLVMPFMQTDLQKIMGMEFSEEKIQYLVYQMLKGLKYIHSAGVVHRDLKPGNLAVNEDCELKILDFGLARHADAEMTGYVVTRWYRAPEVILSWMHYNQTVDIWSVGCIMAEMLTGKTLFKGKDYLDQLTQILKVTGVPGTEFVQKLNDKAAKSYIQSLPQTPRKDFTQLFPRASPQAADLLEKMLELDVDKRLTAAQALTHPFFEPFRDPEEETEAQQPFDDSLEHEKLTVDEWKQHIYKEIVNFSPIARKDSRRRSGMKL
UniProt O43318, 1-303 limits assumed: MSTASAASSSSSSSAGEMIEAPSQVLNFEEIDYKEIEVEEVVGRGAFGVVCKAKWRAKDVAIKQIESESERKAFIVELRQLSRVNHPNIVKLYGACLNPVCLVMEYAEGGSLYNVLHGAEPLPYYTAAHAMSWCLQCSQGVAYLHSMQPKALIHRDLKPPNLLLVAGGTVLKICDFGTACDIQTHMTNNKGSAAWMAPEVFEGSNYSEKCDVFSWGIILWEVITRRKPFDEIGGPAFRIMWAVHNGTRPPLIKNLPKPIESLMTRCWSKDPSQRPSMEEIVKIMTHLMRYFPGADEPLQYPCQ
UniProt Q06187, whole entry R28H: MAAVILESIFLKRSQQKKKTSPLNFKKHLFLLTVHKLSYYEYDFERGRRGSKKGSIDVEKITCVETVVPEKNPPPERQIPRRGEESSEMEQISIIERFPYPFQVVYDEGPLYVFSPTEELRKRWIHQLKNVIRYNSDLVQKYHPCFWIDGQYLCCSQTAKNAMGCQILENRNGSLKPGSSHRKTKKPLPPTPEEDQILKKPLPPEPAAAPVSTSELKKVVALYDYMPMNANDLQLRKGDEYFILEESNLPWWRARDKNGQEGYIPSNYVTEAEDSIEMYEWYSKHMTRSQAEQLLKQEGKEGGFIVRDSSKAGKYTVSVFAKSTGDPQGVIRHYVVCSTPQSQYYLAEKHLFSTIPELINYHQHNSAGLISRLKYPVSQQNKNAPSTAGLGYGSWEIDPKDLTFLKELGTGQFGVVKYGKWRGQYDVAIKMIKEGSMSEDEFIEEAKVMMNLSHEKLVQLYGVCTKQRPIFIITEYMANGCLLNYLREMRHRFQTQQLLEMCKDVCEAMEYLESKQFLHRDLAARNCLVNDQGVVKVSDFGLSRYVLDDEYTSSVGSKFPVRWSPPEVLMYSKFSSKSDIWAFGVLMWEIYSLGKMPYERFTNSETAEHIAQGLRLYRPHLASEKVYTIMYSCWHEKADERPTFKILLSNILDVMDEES
UniProt Q86Z02: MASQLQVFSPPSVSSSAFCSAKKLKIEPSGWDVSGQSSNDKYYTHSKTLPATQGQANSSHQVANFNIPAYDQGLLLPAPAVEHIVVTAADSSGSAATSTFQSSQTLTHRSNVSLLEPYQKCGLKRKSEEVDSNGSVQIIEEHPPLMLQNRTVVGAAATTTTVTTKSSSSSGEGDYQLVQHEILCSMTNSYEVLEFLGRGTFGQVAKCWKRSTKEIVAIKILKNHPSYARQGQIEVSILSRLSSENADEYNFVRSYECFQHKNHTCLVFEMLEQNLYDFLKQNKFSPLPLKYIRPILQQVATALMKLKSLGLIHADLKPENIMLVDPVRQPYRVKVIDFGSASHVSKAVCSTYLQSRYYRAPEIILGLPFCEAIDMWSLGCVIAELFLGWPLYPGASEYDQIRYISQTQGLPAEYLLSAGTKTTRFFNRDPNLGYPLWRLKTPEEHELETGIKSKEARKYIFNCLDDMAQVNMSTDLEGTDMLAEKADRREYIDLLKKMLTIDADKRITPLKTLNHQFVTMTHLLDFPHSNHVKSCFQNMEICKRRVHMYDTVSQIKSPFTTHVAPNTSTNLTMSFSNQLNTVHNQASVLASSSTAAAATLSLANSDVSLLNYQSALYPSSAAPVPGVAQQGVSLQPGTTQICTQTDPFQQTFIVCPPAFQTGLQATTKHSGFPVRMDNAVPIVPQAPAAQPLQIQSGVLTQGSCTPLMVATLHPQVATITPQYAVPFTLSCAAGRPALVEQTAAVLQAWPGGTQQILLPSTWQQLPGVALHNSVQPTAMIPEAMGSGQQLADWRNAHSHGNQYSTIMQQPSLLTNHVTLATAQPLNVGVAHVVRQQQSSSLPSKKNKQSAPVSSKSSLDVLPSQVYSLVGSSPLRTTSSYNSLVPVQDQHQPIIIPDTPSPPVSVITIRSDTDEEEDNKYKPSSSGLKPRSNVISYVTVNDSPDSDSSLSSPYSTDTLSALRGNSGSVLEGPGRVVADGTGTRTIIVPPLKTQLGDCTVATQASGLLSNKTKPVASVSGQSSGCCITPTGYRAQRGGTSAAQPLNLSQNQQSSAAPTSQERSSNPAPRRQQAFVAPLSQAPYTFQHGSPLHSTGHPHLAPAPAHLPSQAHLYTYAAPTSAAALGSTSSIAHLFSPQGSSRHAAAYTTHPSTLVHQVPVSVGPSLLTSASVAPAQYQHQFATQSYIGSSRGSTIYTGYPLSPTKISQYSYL

What was measured:
Assay in all cases: Kinase Profiling Assay
Format in all cases: biochemical
Conditions in all cases: peptide 100 μM
CK1δ(h) = CK1δ(h) (Homo sapiens, UniProt P48730)
Outline: (§1)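 Activity remaining relative to an uninhibited control was determined by scintillation counting of labeled substrate bound to a negatively charged filter. Radiolabeled phosphate came from ATP; the substrate carried positive charge. Duplicate measurements, within a 266-kinase human panel.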

CaMKIIγ(h) = CaMKIIγ(h) (Homo sapiens, UniProt Q13555)
Outline: as §1

CaMKIIδ(h) = CaMKIIδ(h) (Homo sapiens, UniProt Q13557)
Outline: as §1

DYRK2(h) = DYRK2(h) (Homo sapiens, UniProt Q92630)
Outline: as §1

JNK3(h) = biological target: T1, JNK3(h) (Homo sapiens, UniProt P53779)
T1 construct: purchased Millipore
Outline: as §1

MST1(h) = biological target: T2, MST1(h) (Homo sapiens, UniProt Q13043)
T2 construct: purchased Millipore
Outline: as §1

NEK6(h) = biological target: T3, NEK6(h) (Homo sapiens, UniProt Q9HC98)
T3 construct: purchased Millipore
Outline: as §1

NEK7(h) = biological target: T4, NEK7(h) (Homo sapiens, UniProt Q8TDX7)
T4 construct: purchased Millipore
Outline: as §1

PKBα(h) = PKBα(h) (Homo sapiens, UniProt P31749)
Outline: as §1

PKBβ(h) = PKBβ(h) (Homo sapiens, UniProt P31751)
Outline: as §1

PKCθ(h) = PKCθ(h) (Homo sapiens, UniProt Q04759)
Outline: as §1

SAPK4(h) = biological target: T5, SAPK4(h) (Homo sapiens, UniProt O15264)
T5 construct: purchased Millipore
Outline: as §1

Src(T341M)(h) = biological target: T6, Src(T341M)(h) (Homo sapiens, UniProt P12931, T341M)
T6 construct: purchased Millipore
Outline: as §1

TAK1(h) = biological target: T7, TAK1(h) (Homo sapiens, UniProt O43318)
T7 construct: purchased Millipore
Outline: as §1

cSRC(h) = cSRC(h) (Homo sapiens, UniProt P12931)
Outline: as §1

Met(Y1248H)(h) = biological target: T8, Met(Y1248H)(h) (Homo sapiens, UniProt P08581, Y1230H)
T8 construct: purchased Millipore
Outline: as §1

BTK(R28H)(h) = BTK(R28H)(h) (Homo sapiens, UniProt Q06187, R28H)
Outline: as §1

HIPK1(h) = biological target: T9, HIPK1(h) (Homo sapiens, UniProt Q86Z02)
T9 construct: purchased Millipore
Outline: as §1

PrKX(h) = biological target: T10, PrKX(h) (Homo sapiens, UniProt P51817)
T10 sequence (P51817 1-358): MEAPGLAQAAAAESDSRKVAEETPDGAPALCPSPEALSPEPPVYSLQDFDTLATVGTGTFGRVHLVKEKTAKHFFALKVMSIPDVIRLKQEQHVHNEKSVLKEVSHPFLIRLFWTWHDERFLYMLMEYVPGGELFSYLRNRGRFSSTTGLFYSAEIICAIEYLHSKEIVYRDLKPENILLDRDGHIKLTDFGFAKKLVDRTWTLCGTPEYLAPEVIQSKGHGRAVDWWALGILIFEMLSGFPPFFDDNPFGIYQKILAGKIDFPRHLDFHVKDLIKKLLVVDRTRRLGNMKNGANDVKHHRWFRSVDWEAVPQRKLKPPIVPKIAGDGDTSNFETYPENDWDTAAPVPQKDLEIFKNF
Outline: as §1

TAO1(h) = biological target: T11, TAO1(h) (Homo sapiens, UniProt Q7L7X3)
T11 construct: purchased Millipore
T11 sequence (Q7L7X3 1-1001): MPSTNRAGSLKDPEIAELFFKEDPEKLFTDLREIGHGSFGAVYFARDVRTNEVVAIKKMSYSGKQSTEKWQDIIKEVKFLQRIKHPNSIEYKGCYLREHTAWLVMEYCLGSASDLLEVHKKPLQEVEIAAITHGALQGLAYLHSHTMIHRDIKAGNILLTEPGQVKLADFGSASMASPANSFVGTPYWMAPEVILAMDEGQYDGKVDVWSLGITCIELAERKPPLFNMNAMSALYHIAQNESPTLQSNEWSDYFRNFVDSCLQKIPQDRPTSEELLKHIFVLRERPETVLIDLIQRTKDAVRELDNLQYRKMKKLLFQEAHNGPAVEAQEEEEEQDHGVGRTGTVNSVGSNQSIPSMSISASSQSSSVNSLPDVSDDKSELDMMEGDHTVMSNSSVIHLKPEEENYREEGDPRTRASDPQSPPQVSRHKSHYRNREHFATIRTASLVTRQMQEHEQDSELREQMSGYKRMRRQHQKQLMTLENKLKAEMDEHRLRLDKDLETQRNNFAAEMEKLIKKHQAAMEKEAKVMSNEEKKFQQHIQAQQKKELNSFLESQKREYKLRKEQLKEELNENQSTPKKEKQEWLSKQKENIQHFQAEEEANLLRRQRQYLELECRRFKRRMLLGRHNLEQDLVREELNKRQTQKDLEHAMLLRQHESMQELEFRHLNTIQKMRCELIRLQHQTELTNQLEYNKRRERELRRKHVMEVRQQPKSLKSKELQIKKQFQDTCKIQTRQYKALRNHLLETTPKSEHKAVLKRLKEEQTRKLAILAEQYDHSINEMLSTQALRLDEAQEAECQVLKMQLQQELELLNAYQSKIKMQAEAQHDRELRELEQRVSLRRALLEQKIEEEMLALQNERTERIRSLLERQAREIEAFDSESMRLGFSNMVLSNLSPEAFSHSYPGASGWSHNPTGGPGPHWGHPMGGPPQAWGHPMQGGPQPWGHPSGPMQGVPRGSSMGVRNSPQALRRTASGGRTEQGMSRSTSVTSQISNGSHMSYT
Outline: as §1

CC(C)C[C@H](NC(=O)[C@H](C)NC(=O)[C@H](CCCCN)NC(=O)[C@H](C)NC(=O)[C@H](CCCNC(=N)N)NC(=O)[C@H](C)NC(=O)[C@H](CCC(N)=O)NC(=O)[C@H](CCCNC(=N)N)NC(=O)[C@H](C)NC(=O)[C@H](C)NC(=O)[C@H](C)NC(=O)[C@H](CCCNC(=N)N)NC(=O)[C@H](C)NC(=O)[C@@H](N)Cc1ccc(O)cc1)C(=O)N[C@@H](C)C(=O)N[C@@H](CCCNC(=N)N)C(=O)N[C@@H](CCC(N)=O)C(=O)N[C@@H](CC(C)C)C(=O)NCC(=O)N[C@H](C(=O)N[C@@H](C)C(=O)N[C@@H](C)C(=O)O)C(C)C [MMI-0100]
% activity (CK1δ(h)): 115% | % activity (CaMKIIγ(h)): 106% | % activity (CaMKIIδ(h)): 89% | % activity (DYRK2(h)): 99% | % activity (JNK3(h)): 104% | % activity (MST1(h)): 85% | % activity (NEK6(h)): 109% | % activity (NEK7(h)): 97% | % activity (PKBα(h)): 140% | % activity (PKBβ(h)): 284% | % activity (PKCθ(h)): 102% | % activity (SAPK4(h)): 98% | % activity (Src(T341M)(h)): 98% | % activity (TAK1(h)): 116% | % activity (cSRC(h)): 70%

FAKLAARLYRKALARQLGVAA [MMI-0300]
% activity (Met(Y1248H)(h)): 117%

YARAAARQARAKALNRQLGVA (Mammal) [MMI-0200]
% activity (BTK(R28H)(h)): 104% | % activity (HIPK1(h)): 115% | % activity (PrKX(h)): 112% | % activity (TAO1(h)): 105%
